Values quoted from earlier work in paper PMC10528545.
pKd: −log10 of the molar value.

By UniProt entry, the sequences of proteins in these tests, tags left out. Residues count along the entry.
UniProt P12956, 2-609, chain 1 of 2: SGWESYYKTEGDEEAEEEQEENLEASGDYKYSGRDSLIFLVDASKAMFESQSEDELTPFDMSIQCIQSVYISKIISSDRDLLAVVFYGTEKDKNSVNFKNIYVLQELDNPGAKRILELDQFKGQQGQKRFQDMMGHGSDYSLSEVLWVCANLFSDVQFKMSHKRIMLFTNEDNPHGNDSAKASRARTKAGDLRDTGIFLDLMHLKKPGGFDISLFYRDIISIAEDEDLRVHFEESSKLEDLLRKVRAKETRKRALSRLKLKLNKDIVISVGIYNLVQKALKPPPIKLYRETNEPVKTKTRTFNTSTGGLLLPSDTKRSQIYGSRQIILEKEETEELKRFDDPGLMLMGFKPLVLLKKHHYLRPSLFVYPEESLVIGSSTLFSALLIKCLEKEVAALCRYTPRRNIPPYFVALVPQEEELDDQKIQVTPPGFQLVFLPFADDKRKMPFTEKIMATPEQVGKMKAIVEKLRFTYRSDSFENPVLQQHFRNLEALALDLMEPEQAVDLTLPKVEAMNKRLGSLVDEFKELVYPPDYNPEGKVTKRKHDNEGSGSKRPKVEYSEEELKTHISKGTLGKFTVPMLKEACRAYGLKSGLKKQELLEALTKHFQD
UniProt P78527, whole entry: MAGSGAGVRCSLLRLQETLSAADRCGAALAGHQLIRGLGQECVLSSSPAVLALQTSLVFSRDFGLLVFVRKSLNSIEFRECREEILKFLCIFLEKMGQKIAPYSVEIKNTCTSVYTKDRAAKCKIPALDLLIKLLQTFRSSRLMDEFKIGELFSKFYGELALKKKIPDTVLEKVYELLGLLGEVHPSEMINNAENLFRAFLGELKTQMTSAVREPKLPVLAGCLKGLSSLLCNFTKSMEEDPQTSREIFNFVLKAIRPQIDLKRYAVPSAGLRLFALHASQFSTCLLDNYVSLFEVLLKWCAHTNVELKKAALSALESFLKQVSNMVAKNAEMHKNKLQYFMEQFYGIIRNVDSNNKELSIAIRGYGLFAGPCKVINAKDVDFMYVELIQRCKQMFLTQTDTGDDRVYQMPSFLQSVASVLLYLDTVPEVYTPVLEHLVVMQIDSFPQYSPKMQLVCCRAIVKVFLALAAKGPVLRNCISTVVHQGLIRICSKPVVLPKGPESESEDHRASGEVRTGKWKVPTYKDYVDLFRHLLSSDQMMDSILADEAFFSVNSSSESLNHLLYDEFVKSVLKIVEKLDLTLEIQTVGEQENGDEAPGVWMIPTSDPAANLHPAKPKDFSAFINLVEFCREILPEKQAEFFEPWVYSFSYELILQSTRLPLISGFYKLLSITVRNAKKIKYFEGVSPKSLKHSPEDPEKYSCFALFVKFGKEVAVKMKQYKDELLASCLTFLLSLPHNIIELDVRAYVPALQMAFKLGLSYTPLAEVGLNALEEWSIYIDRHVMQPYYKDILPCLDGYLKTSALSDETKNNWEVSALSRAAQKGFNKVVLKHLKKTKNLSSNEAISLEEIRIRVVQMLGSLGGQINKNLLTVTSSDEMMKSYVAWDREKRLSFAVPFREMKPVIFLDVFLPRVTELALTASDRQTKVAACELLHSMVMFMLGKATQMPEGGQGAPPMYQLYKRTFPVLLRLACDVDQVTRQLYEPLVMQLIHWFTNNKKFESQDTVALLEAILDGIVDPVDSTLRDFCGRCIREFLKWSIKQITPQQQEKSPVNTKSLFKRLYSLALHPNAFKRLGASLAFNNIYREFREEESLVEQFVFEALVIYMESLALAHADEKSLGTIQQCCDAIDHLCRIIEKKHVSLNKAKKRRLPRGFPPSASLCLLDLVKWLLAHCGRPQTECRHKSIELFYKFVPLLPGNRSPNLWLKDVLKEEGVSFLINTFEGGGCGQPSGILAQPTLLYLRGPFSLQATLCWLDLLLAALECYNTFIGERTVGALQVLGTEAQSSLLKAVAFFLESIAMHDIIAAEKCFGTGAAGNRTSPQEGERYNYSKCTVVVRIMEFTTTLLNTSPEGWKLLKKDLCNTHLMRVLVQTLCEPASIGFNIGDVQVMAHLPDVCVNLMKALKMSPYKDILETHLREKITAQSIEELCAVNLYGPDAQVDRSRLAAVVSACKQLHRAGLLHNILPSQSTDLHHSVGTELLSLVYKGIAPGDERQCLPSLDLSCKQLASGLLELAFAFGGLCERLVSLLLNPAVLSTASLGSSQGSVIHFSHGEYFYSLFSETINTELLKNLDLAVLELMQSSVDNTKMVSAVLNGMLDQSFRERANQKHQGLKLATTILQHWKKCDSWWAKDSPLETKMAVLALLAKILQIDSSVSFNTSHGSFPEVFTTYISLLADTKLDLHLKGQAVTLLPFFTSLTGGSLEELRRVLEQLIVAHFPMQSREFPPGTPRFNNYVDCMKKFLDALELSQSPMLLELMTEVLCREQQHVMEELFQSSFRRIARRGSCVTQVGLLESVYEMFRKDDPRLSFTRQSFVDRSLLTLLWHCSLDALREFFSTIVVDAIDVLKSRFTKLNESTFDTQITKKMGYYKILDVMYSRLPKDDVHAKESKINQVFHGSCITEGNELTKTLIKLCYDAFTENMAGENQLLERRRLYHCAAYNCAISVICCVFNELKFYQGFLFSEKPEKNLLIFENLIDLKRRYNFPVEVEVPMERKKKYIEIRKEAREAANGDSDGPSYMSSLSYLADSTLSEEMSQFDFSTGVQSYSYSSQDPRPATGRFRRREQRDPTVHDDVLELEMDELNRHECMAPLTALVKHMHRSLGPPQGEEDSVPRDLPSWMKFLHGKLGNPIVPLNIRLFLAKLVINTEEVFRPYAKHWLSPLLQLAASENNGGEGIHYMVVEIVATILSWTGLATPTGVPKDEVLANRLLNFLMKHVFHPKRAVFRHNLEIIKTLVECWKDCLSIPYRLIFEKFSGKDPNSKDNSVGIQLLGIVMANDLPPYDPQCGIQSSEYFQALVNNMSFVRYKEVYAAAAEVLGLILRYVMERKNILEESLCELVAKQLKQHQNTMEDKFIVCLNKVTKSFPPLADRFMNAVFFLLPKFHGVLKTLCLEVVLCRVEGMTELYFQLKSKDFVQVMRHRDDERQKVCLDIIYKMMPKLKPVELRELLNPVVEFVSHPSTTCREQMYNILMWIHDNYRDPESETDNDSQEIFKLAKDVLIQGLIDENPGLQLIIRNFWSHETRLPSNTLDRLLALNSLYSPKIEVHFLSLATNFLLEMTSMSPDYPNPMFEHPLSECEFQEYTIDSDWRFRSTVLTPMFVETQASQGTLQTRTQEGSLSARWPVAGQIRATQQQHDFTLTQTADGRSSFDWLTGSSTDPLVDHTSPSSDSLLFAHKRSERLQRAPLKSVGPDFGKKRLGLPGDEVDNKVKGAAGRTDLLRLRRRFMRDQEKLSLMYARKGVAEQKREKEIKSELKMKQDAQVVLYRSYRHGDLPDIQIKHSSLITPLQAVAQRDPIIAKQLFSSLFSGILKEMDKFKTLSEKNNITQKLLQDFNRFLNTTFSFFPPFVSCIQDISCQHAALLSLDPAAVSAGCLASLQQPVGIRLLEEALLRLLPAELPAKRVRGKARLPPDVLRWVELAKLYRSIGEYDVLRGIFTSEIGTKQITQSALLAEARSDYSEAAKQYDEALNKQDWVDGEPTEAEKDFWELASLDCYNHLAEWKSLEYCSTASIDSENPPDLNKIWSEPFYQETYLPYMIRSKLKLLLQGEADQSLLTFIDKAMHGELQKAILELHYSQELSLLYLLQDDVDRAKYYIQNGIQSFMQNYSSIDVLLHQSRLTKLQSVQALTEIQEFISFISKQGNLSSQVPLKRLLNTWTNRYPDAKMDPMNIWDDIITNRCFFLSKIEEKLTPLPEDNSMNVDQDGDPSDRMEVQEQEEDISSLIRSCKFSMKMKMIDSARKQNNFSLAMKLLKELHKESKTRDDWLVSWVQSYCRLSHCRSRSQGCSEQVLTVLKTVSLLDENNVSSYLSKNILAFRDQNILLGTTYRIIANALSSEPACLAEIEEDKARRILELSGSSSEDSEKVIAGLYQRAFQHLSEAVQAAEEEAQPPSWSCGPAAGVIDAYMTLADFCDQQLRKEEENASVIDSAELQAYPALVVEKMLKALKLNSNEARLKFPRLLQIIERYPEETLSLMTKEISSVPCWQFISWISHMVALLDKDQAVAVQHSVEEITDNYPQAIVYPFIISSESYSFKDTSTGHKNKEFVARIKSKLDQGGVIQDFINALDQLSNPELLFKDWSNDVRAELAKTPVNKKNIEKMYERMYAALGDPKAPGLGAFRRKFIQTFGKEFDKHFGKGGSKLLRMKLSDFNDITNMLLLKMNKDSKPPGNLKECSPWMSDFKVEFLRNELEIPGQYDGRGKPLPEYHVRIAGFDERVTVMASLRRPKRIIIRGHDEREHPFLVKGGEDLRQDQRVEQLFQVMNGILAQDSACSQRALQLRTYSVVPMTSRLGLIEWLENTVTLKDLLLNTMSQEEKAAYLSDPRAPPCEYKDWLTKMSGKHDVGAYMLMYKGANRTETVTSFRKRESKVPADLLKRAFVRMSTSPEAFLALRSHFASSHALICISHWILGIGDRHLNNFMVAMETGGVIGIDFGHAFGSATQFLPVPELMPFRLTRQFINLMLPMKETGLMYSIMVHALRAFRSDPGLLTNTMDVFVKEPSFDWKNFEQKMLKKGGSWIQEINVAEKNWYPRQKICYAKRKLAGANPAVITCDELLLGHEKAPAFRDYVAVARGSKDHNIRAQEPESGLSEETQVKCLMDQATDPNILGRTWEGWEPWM

Target: Ku (Homo sapiens) (UniProt P12956)

## DNA-PKcs (from UniProt P78527)
  pKd: 10.46
